According to publication PMC12202309 (International Journal of Neuropsychopharmacology, 2025):
Like-named read-outs stand apart in the source and are kept apart here. Marks after values point to notes of the source that are not given here.

How the values were obtained:
[1] = Rapid equilibrium dialysis, protein binding in plasma; assay type: in vitro ADME; conditions: C57BL/6N, mouse, plasma (pooled samples from the study mice), mean (range)
Description: (§1) Plasma samples collected from individual mice at each time point were pooled into composite samples due to insufficient sample volumes for performing RED. Similarly, brain homogenate samples from individual time points were pooled. RED was performed according to the manufacturer’s protocol (for details, see the Supplementary Materials). The free drug fraction in plasma was calculated by using Equation 1:
Rapid Equilibrium Dialysis. Briefly, 50 µL of drug-spiked plasma or 100 µL of 10-fold diluted brain homogenates were added to the sample chambers of the RED device, while 300 µL or 350 µL of phosphate-buffered saline (PBS, pH at 7.4) were added to the corresponding buffer chambers. Each pooled sample was analysed in triplicate. Control samples consisting of plasma and brain homogenates from the study, spiked with clozapine and trazodone at a target concentration of 100 ng/mL, were analysed in each measurement series. Each plate was sealed with aluminium foil and incubated at 37 ± 1 °C with an agitation at 350 rpm on an orbital shaker (Randox PHMP, Grant Instruments Ltd, Shepreth, Cambridgeshire, England) for 4 hours. After incubation, a matrix-matching procedure was performed: 10 µL of each post-dialysis sample was mixed with an equal volume of PBS, while 10 µL of each buffer sample was mixed with the corresponding blank plasma or brain homogenate. […]

[2] = Rapid equilibrium dialysis, binding in brain homogenates; assay type: in vitro ADME, mice; conditions: C57BL/6N, mouse, mean (range), pooled samples, read-out: unbound fraction in the brain homogenate
Description: as §1, with “1: […]” for “1:”
The free drug fraction in the brain homogenate was determined by using Equation 2, which accounts for the effect of tissue dilution on the unbound fraction:
fu,brain=1/D/(1/fu,diluted−1)+1/D
were D is the dilution factor in the brain homogenate and the fu,diluted associated free fraction determined as the ratio of concentrations in the buffer versus the diluted brain tissue.
Rapid Equilibrium Dialysis. Briefly, 50 µL of drug-spiked plasma or 100 µL of 10-fold diluted brain homogenates were added to the sample chambers of the RED device, while 300 µL or 350 µL of phosphate-buffered saline (PBS, pH at 7.4) were added to the corresponding buffer chambers. Each pooled sample was analysed in triplicate. Control samples consisting of plasma and brain homogenates from the study, spiked with clozapine and trazodone at a target concentration of 100 ng/mL, were analysed in each measurement series. […]

[3] = Brain penetration (brain homogenate AUCt, Kp,brain, Kp,uu,brain); conditions: for AUCt brain homogenate: t = 24 hours, mean (95% CI)
Description: After a 1-week acclimation period, the mice were randomly assigned to 2 experimental groups of 36 animals each: (1) an LPS group was given a single 4 mg/kg intraperitoneal (IP) injection of lipopolysaccharide (LPS), serotype O55:B05 (Sigma) and (2) a control group received a vehicle (sterile phosphate-buffered saline). […] The volume load for mice weighing 25 g was 125 µL. […] The doses of DMSO and MC were 276 and 25 mg/kg. […] Sampling was performed at 2 intervals in each of the 18 mice injected with LPS and 18 controls. The first blood volume of 150 µL was taken into an EDTA-microvette CB 300 (Sardstedt) from a drop of blood after a small incision at the end of the tail. At the termination interval, the second blood sample was collected by cardiac puncture in terminal anesthesia, and then the animal was put to death by decapitation. […] The injected volume was 1 mL/kg, that is, 25 µL for a 25 g mouse. […] The injected volume was 2.5 mL/kg, that is, […]. After IV administrations, blood was sampled at 3, 5, 10, 20, and 40 minutes, and 1, 1.5, 2, 3, 4, and 6 hours. Blood samples were taken at 3 intervals in each mouse. The first 2 samples of 75 µL each were taken from the retroorbital plexus under brief anesthesia and the third terminal sample was described for oral dosing. Plasma samples were obtained from whole blood by centrifugation at 2000 × g for 5 minutes at 4°C. Whole brain, liver, and intestine were excised and immediately frozen in liquid nitrogen. All samples were stored at −80°C until analysis.
Details of the analysis can be found in the Supplementary Materials.
The calculation of the point estimate and the 95% bootstrap t-confidence interval for AUCt was performed with the help of the R-package PK (https://cran.r-project.org/web/packages/PK/index.html). Total brain-to-plasma drug partition coefficient (Kp,brain) and unbound brain-to-unbound plasma partition coefficient (Kp,uu, brain) were calculated using Equations 3 and 4:
Kp,brain=AUCt,brain/AUCt,plasma
Kp, uu,brain=fu,brain × AUCt,brain/fu, plasma × AUCt,plasma

[4] = C57BL/6N, mouse, in vivo, po
[5] = in vivo; conditions: C57BL/6N, mouse
[6] = cited from earlier work
[7] = cited from earlier work; for Kp,uu / Kp for total olanzapine: rat brain
[8] = cited from earlier work; remark: listed apart in the source
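Throughout, for increase of absolute bioavailability Fp.o., LPS vs controls: pharmacokinetic model fitted to concentration-time data, with between-animal variability described exponentially, residual error proportional, and effect of LPS injection assessed on clearance and distribution volumes.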

Cc1cc2c(s1)Nc1ccccc1N=C2N1CCN(C)CC1 [olanzapine]
fraction unbound at 4 h ([1]; pH 7.4, LPS mice): 0.401 | fraction unbound at 4 h ([1]; pH 7.4, control mice): 0.416 | fraction unbound at 4 h ([2]; pH 7.4, LPS mice): 0.291 | fraction unbound at 4 h ([2]; pH 7.4, control mice): 0.274 | Kp,brain ([3]; Controls, 0.5 mg/kg IV OL): 5.5 | Kp,uu,brain ([3]; Controls, 0.5 mg/kg IV OL): 3.6 | Kp,brain ([3]; Controls, 4 mg/kg PO OL): 6.3 | Kp,uu,brain ([3]; Controls, 4 mg/kg PO OL): 4.1 | AUCt brain homogenate ([3]; Controls, 4 mg/kg PO OL): 758 (661–854) hour × ng/mg | Kp,brain ([3]; LPS mice, 0.5 mg/kg IV OL): 8.3 | Kp,brain ([3]; LPS mice, 4 mg/kg PO OL): 8.5 | Kp,uu,brain ([3]; LPS mice, 4 mg/kg PO OL): 6.2 | AUCt brain homogenate ([3]; LPS mice, 4 mg/kg PO OL): 3950 (1850–6040)* hour × ng/mg | increase of absolute bioavailability Fp.o., LPS vs controls [4]: 3.1 fold | clearance [5]: 47.3 mL/min/kg | CL/F ([6]; mice dosed with 10 mg/kg): 462 mL/min/kg | CL/F ([6]; mice, IP injection 2 mg/kg): 28.3 mL/min/kg | CL/F ([6]; mice, IP injection 25 mg/kg): 40 mL/min/kg | Kp,uu ([7]; brainstem): 0.86 | Kp for total olanzapine ([7]; cerebellum): 1.9 | Kp for total olanzapine ([7]; frontal cortex): 4.1 | Kp,uu ([7]; frontal cortex): 1.8 | increase of bioavailability of oral olanzapine ([7]; rats with depletion of gut microbiota by three antibiotics for 14 days): 1.8 fold | lower therapeutic range ([8]; favorable response but poor tolerance): 20 to 40 ng/mL | reduction in oral clearance during infections ([8]; population pharmacokinetic study): 25%
